In ChEMBL document CHEMBL3822453 (J Med Chem, 2016):
The source made the active and inactive calls. The rule behind the calls is not given here.

Target: T1, DNA repair protein RAD51 homolog 1 (Homo sapiens) (UniProt Q06609)
T1 sequence (whole entry): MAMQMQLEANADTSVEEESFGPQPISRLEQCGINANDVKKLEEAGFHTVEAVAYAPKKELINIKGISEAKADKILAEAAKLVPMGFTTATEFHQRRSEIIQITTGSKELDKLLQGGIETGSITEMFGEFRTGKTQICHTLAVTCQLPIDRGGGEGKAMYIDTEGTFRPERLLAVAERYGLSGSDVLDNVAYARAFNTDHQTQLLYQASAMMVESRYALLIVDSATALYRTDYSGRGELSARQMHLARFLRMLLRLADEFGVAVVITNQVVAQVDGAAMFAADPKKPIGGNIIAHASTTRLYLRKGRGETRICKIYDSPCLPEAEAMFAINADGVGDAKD
Assay: Inhibition of RAD51-mediated homologous recombination in human HEK293-DR-GFP cells transfected with pCBASce expressing I-Sce-I after 24 hrs following transfection by 7-aminoactinomycin D staining based flow cytometry
Assay type: cell-based

inhibition: Active
Compound: Nc1ccc(-c2nc3cc(O)ccc3n3cccc23)cc1
